Values of other authors in patent US20260248947A1, “Methods of Treating Cancer Using Anti-HER2 Antibody-Drug Conjugates and HER2 Kinase Inhibitors” (Seagen Inc., priority 2023, published 2026).

How the values were obtained:
[1] = system: HER2-low metastatic breast cancer; settings: heavily pretreated patients; cited from earlier work
[2] = system: HER2+ locally advanced or metastatic breast cancer (LA/mBC); settings: subjects that progressed following taxane plus trastuzumab treatment; cited from earlier work

trastuzumab deruxtecan [T-DXd]
improvement of median overall survival compared with standard single-agent chemotherapy [1]: 6.6 months | improvement of median progression-free survival compared with standard single-agent chemotherapy [1]: 4.8 months | overall response (either complete or partial response) [2]: 79.7% | subjects alive without disease progression at 12 months [2]: 75.8%
